AlphaSeq binding of Ab-14 heavy chain variants to a spike HR2 peptide

Binding partner: SARS-CoV-2 spike HR2 peptide, sequence PDVDLGDISGINAS.

The variants keep the light chain, the linker and the frameworks of Ab-14 (scFv order VH, a (GGGGS)3 linker, VL).
VH: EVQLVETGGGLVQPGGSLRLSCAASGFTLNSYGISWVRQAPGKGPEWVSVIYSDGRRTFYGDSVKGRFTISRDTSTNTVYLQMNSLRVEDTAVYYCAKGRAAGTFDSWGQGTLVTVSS
VL: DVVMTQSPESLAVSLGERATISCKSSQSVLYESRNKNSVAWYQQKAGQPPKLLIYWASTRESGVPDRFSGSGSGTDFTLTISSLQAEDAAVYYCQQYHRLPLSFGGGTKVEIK

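The starting antibody came from a phage panning campaign against this peptide. These sequences belong to a second round, designed from the earlier measurements on random variants of the parent. Their group label is 14H_GPLM_Gen (GPLM: also part of the Gaussian process libraries; Gen: genetic algorithm; a sequence that several methods proposed may carry one label only). The assay is AlphaSeq: two haploid yeast populations carry antibody and antigen on their surface. After mating in shaken culture at 30 °C for 16 h, diploids were selected and their barcode pairs sequenced. Each replicate has its own calibration line, from reference interactions of the BCL2 family. Mating was done six times.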

Positions count from residue 1 of the parent VH; G61A puts A in place of G. The read-out is the apparent dissociation constant on a log10 scale (nM): the lower, the stronger. Averages over replicates are reported, and they cover detected replicates only. Where no diploid with the target was found in that replicate, the entry reads "ND": below detection, most likely a poor binder, though not proof of it. The authors averaged sequences with at least three values out of six and counted those with two or fewer as poor binders.

changes,"replicates, log10 nM","log10 Kd (nM), mean",empty controls
G61A/A101L,0.17 / 0.56 / 1.12 / 0.44 / 0.93 / 1.52,0.79,0 of 18
T28S/S31D/G61I/A101V,-0.10 / -0.05 / 0.36 / -0.07 / 0.10 / 0.42,0.11,0 of 18
T28D/A101T,0.50 / 2.12 / 1.07 / 0.32 / 0.84 / 0.55,0.90,0 of 18
T28S/R100N/A101E,-0.23 / -0.35 / -0.33 / -0.39 / -0.26 / -0.24,-0.30,0 of 18
T28N/G61A/S63P/R100Q,1.30 / 0.96 / 1.08 / 1.00 / 1.39 / 1.33,1.18,0 of 18
F27M/T28D/A101T,1.01 / 0.24 / 0.12 / 0.74 / 0.68 / 0.71,0.59,0 of 18
T28S/G61A/R100Q/A101T/S107K,0.11 / 0.09 / -0.13 / -0.07 / -0.27 / 0.16,-0.02,0 of 18
T28S/R100K/S107V,ND / ND / ND / 1.72 / ND / ND,1.72,0 of 18
T28A/S31E/A101H,1.63 / 0.76 / ND / ND / 0.81 / ND,1.06,0 of 18
T28S/G61D/R100Q/A101T,-0.06 / -0.03 / -0.16 / -0.15 / 0.03 / 0.13,-0.04,1 of 18 (1.82)
T28S/G61I/A101I,1.60 / 1.85 / 1.44 / 1.81 / 2.42 / 2.39,1.92,0 of 18
T28S/S31D/S63K/A101T,0.54 / 0.29 / 0.16 / 0.41 / -0.11 / 1.30,0.43,0 of 18
T28S/S31W/G61S/R100E,0.30 / 0.15 / 0.11 / 0.47 / 0.08 / 0.37,0.25,0 of 18
S53A/R100Q/A101T,-0.68 / -0.63 / -0.39 / -0.94 / -0.93 / -0.23,-0.63,0 of 18
T28H/G61A/A101T/S107T,ND / -0.63 / 0.55 / 1.50 / -0.79 / ND,0.16,0 of 18
T28K/R100Q/A101T,1.42 / 1.80 / 1.10 / 2.65 / 1.90 / 1.33,1.70,1 of 18 (1.99)
T28S/R100L/A101T,-0.06 / 0.39 / 0.03 / 0.14 / 0.14 / 0.19,0.14,1 of 18 (3.10)
T28S/R100Q/A101T/S107L,ND / ND / ND / ND / 2.07 / 2.28,2.18,0 of 18
T28H/R56K/G61A/R100Q,ND / 0.73 / 0.79 / 0.39 / 0.86 / 1.15,0.78,0 of 18
T28S/S31E/G61C,0.69 / 0.87 / 1.11 / 0.47 / 0.13 / 0.08,0.56,0 of 18
R56I/A101T,1.10 / ND / ND / ND / ND / ND,1.10,0 of 18
R100H/A101E/S107T,0.94 / 0.02 / 1.37 / 0.22 / 0.84 / 0.25,0.61,1 of 18 (1.83)
T28E/G61A/R100Q/A101T,0.40 / 0.13 / 0.16 / 0.19 / 0.19 / 0.22,0.22,3 of 18 (2.35)
S31E/A101T/D106M,ND / ND / ND / ND / ND / ND,ND,0 of 18
T28S/G61A/S107Q,0.76 / 1.10 / 0.43 / 0.73 / 0.82 / 1.08,0.82,0 of 18
N30E/G61A,1.67 / 1.47 / 1.13 / 0.96 / 0.87 / 1.03,1.19,0 of 18
S31E/A101S,0.30 / 0.88 / 0.77 / 0.37 / 0.06 / 0.23,0.44,1 of 18 (1.63)
T28S/S53A/R100D,-0.02 / -0.55 / -0.59 / -0.65 / -0.25 / -0.48,-0.42,0 of 18
T28S/S31T/R100K,ND / 0.89 / ND / 0.58 / 0.49 / 0.70,0.66,0 of 18
T28S/G61A/A101I,0.48 / 0.05 / 0.45 / 0.12 / 0.85 / 0.63,0.43,0 of 18
T28S/G61A/S63Q/A101T,0.11 / 1.36 / 0.29 / 0.86 / 0.06 / 0.04,0.45,1 of 18 (2.72)
T28S/S31E/S107T,-0.06 / -0.36 / -0.29 / -0.47 / -0.29 / -0.25,-0.29,1 of 18 (3.03)
T28S/G61A/S63Q,1.69 / -0.30 / 0.57 / 0.23 / 0.41 / 0.94,0.59,0 of 18
T28S/G61S/A101N,ND / ND / ND / ND / ND / ND,ND,0 of 18
T28S/A101T/S107M,0.60 / 0.34 / 0.35 / 0.35 / 0.28 / 0.25,0.36,0 of 18
T28S/S53A/S107T,-0.39 / -0.79 / -0.25 / -0.90 / -0.04 / -0.76,-0.52,0 of 18
T28H/G61Q/R100Q,1.54 / 1.77 / 2.35 / 2.02 / 2.00 / ND,1.94,0 of 18

The 3 strongest on average among those seen in every replicate, once more:

| changes | replicates, log10 nM | log10 Kd (nM), mean | empty controls |
|---|---|---|---|
| S53A/R100Q/A101T | -0.68 / -0.63 / -0.39 / -0.94 / -0.93 / -0.23 | -0.63 | 0 of 18 |
| T28S/S53A/S107T | -0.39 / -0.79 / -0.25 / -0.90 / -0.04 / -0.76 | -0.52 | 0 of 18 |
| T28S/S53A/R100D | -0.02 / -0.55 / -0.59 / -0.65 / -0.25 / -0.48 | -0.42 | 0 of 18 |

The parent sequence was in this pool as ten entries: three were never detected, three once, and four in most replicates, with averages from 0.34 to 2.37. Background: pairings of all heavy chain designs with three empty control strains gave a value in 1% of cases (median 2.08, 5th percentile 0.84). Values in that range, when seen in few replicates, are hard to tell from nonspecific mating. Also given: how often the same scFv was detected with the empty control strains, with their mean in brackets. Values of this round are not directly comparable with the first-round values of the same sequences.

Reference: Li et al. 2023, doi:10.1038/s41467-023-39022-2. File: FLAb, binding data.